Test results taken from DBAASP.

Tests used:
[1] = test system: Staphylococcus aureus ATCC 12600; test: ≥ marks a high value that may be exact or a test limit, other limits are often not marked, values filed in µg/mL are converted to µM
[2] = test system: Escherichia coli K-12; test: as above

SMILES | MIC [1] [µM] | MIC [2] [µM]
CC[C@H](C)[C@H](NC(=O)[C@H](CCCCN)NC(=O)[C@@H](N)Cc1ccccc1)C(=O)N[C@@H](CCCCN)C(=O)N[C@@H](C)C(=O)N[C@@H](CO)C(=O)N[C@@H](CCCCN)C(=O)N[C@@H](CCCCN)C(=O)N[C@@H](CC(C)C)C(=O)N[C@@H](CC(C)C)C(=O)N[C@@H](CCCCN)C(=O)N[C@@H](CCCCN)C(=O)N[C@H](C(=O)NCC(=O)N[C@@H](CCCCN)C(=O)NCC(=O)N[C@@H](C)C(=O)N[C@@H](CC(C)C)C(=O)NCC(=O)N[C@@H](C)C(=O)N[C@H](C(=O)N[C@@H](C)C(=O)N[C@@H](CCCCN)C(=O)N[C@@H](C)C(=O)N[C@@H](CC(C)C)C(=O)N[C@@H](C)C(=O)N[C@@H](CCC(N)=O)C(=O)N[C@@H](CCC(N)=O)C(=O)N[C@@H](C)C(=O)O)C(C)C)C(C)C [FKIKASKKLLKKVGKGALGAVAKALAQQA] | ≥ 128 | 4 (≈ 11.9 µg/mL)
CC[C@H](C)[C@H](NC(=O)[C@@H]1CCCN1C(=O)[C@H](CCCCN)NC(=O)[C@H](CC(C)C)NC(=O)[C@H](C)NC(=O)[C@@H](NC(=O)[C@@H](NC(=O)[C@H](CC(C)C)NC(=O)[C@@H](NC(=O)[C@H](CCCCN)NC(=O)[C@H](CCCCN)NC(=O)[C@H](C)NC(=O)[C@H](C)NC(=O)[C@H](CO)NC(=O)[C@@H](NC(=O)[C@H](CC(C)C)NC(=O)[C@H](CCCCN)NC(=O)[C@H](CCCCN)NC(=O)[C@H](CC(C)C)NC(=O)[C@H](Cc1ccccc1)NC(=O)[C@H](CO)NC(=O)[C@H](CCCCN)NC(=O)[C@H](Cc1c[nH]c2ccccc12)NC(=O)[C@@H](N)CCCCN)[C@@H](C)O)C(C)C)[C@@H](C)O)[C@@H](C)O)C(=O)N[C@@H](CO)C(=O)N[C@@H](CO)C(=O)O [KWKSFLKKLTSAAKKVLTTALKPISS] | ≥ 64 | 4 (≈ 11.5 µg/mL)
CC[C@H](C)[C@H](NC(=O)[C@@H]1CCCN1C(=O)[C@H](CCCCN)NC(=O)[C@H](CC(C)C)NC(=O)[C@H](C)NC(=O)[C@@H](NC(=O)[C@H](Cc1ccc(O)cc1)NC(=O)[C@H](Cc1ccccc1)NC(=O)[C@@H](NC(=O)[C@@H](NC(=O)[C@H](CCCCN)NC(=O)[C@@H](NC(=O)[C@@H]1CCCN1C(=O)[C@H](CO)NC(=O)[C@H](CCCCN)NC(=O)[C@H](Cc1ccccc1)NC(=O)[C@@H](NC(=O)[C@H](CCCCN)NC(=O)[C@H](CC(C)C)NC(=O)[C@H](Cc1ccccc1)NC(=O)[C@H](CO)NC(=O)[C@H](CCCCN)NC(=O)[C@H](Cc1c[nH]c2ccccc12)NC(=O)[C@@H](N)CCCCN)[C@@H](C)O)C(C)C)[C@@H](C)O)C(C)C)[C@@H](C)O)C(=O)N[C@@H](CO)C(=O)N[C@@H](CO)C(=O)O [KWKSFLKTFKSPVKTVFYTALKPISS] | ≥ 128 | 2 (≈ 6.07 µg/mL)
CC(C)C[C@H](NC(=O)[C@H](CC(N)=O)NC(=O)[C@H](CCC(=O)O)NC(=O)[C@H](CC(N)=O)NC(=O)[C@H](CC(C)C)NC(=O)[C@@H](N)C(C)C)C(=O)N[C@@H](C)C(=O)N[C@@H](C)C(=O)O [VLNENLAA] | ≥ 128 | 

Converted amounts (≈) assume the structure as drawn.
